{"source": "patent US20190144503A1", "about": "(REGENTS OF THE UNIVERSITY OF MINNESOTA, published 2019)", "binders": {"B1": {"name": "Fn-AAZ clone 0.3.10 (fibronectin type III domain of SEQ ID NO: 3 conjugated to acetazolamide) (designed binder)", "chain": "MASSSDSPRNLEVTNATPNSLTISWDSYLDCAYYYRITYGETGGNSPSQEFTVPGYTNSVTISGLKPGQDYTITVYAVASSNDVSNPISINYRTEIDKPSQGS", "modifications": "acetazolamide (AAZ) conjugated through a maleimide-PEG linker to the single cysteine; PEG length not stated for this clone", "notes": "Expressed and purified clone, conjugated with maleimide-PEG-AAZ; also called first Fn-AAZ clone; first Fn-AAZ conjugate"}}, "biological_target": "recombinant His-tagged human carbonic anhydrase 9 (human, UniProt Q16790 38-414)", "experiment": "binding of the purified clone to CA9 (FIG. 14A); method not stated"}
{"binder": "B1", "values": [{"measurement": "fold higher affinity than the Fn not conjugated to AAZ", "value": 10, "unit": "fold"}]}
